The values that follow come from patent publication US7262211B2.

The subject of one experiment is hTrypsin. Briefly: Trypsin assay, chromogenic substrate S-2222. The note with it: read-out: Ki hTrypsin; Ki calculated from IC50; 30 minute incubation, HBSA buffer. How it is done: (§1) The ability of compounds of the present invention to act as selective inhibitors of urokinase catalytic activity was assessed by determining the concentration of test compound which inhibited the activity of this enzyme by 50%, (IC50), and comparing this value to that determined for all or some of the following related serine proteases: recombinant tissue plasminogen activator (rt-PA), plasmin, activated protein C, chymotrypsin, factor Xa, thrombin and trypsin.
(§2) The buffer used for all assays was HBSA (10 mM HEPES, pH 7.5, 150 mM sodium chloride, 0.1% bovine serum albumin).
(§3) The assay for IC50 determinations was conducted by combining in appropriate wells of a Corning microtiter plate, 50 microliters of HBSA, 50 microliters of the test compound at a specified concentration (covering a broad concentration range) diluted in HBSA (or HBSA alone for V0 (uninhibited velocity) measurement), and 50 microliters of the enzyme diluted in HBSA. Following a 30 minute incubation at ambient temperature, 50 microliters of the substrate at the concentrations specified below were added to the wells, yielding a final total volume of 200 microliters (about 4 times Km). The initial velocity of chromogenic substrate hydrolysis was measured by the change in absorbance at 405 nm using a Thermo Max® Kinetic Microplate Reader over a 5 minute period in which less than 5% of the added substrate was utilized. The concentration of added inhibitor which caused a 50% decrease in the initial rate of hydrolysis was defined as the IC50 value. Ki may be calculated from the IC50 value.
Trypsin catalytic activity was determined using the chromogenic substrate, S-2222 (benzoyl-L-isoleucine-L-glutamic acid-[gamma-methyl ester]-L-arginine-p-nitroanilide), which was obtained from DiaPharma Group. The substrate was made up in deionized water followed by dilution in HBSA prior to the assay in which the final concentration was 250 micromolar (about 4-times Km). Purified (3×-crystallized; TRL3) bovine pancreatic trypsin was obtained from Worthington Biochemical Corp. The enzyme was reconstituted in deionized water and diluted into HBSA prior to assay in which the final concentration was 0.5 nM.

For a further experiment, the target named is Urokinase (Abbokinase) (Homo sapiens, UniProt P00749). Briefly: Urokinase assay, chromogenic substrate S-2444. The note with it: read-out: Ki uPA; Ki calculated from IC50; 30 minute incubation, HBSA buffer. Here is the method: as §1, §2, §3
Urokinase catalytic activity was determined using the chromogenic substrate 150 mM S-2444 (L-Pyroglutamyl-glycyl-L-arginine-p-nitroaniline hydrochloride), obtained from DiaPharma Group, Inc. Urokinase (Abbokinase), manufactured by Abbott Laboratories, was obtained from Priority Pharmaceuticals and diluted to 750 pM in the HBSA assay buffer prior to use. The assay buffer was HBS (10 mM HEPES, 150 mM sodium chloride pH 7.4) with 0.1% BSA. Ki was calculated using the IC50 value.

Broadly, the Ki is a dissociation constant, usually derived from enzyme kinetics or from competition with a known ligand. As for `N=C(N)Nc1ccc(CNC(=O)Cn2cccc(NS(=O)(=O)Cc3ccc(I)cc3)c2=O)cc1`, the Ki with hTrypsin and at Urokinase (Abbokinase) was 0.1 to 0.25 µM in each case.
For `CC(C(=O)NCc1ccc(NC(=N)N)cc1)n1cccc(NS(=O)(=O)Cc2ccc(I)cc2)c1=O` (centres unmarked), the Ki was 0.25 to 1 µM in the experiment with hTrypsin and less than 0.1 µM on Urokinase (Abbokinase).
For `N=C(N)Nc1ccc(CNC(=O)Cn2cccc(NS(=O)(=O)Cc3ccccc3)c2=O)cc1`, the inhibitory constant (Ki) in the experiment with hTrypsin is 0.1 to 2.5 µM.
Take `CC(C(=O)NCc1ccc(NC(=N)N)cc1)n1cccc(NS(=O)(=O)Cc2ccc(Br)cc2)c1=O` (centres unmarked): the inhibition constant Ki in the experiment on hTrypsin was 0.1 to 0.25 µM; on Urokinase (Abbokinase) it was less than 0.1 µM.
Consider `CC(C(=O)NCc1ccc(NC(=N)N)cc1)n1cccc(NS(=O)(=O)Cc2ccccc2)c1=O` (centres unmarked), for which the Ki in the experiment with hTrypsin and at Urokinase (Abbokinase) was 0.1 to 0.25 µM each time.
On to `CC(C(=O)NCc1ccc(NC(=N)N)cc1)n1cccc(NS(=O)(=O)c2ccc(I)cc2)c1=O` (centres unmarked), for which the Ki in the experiment on hTrypsin is 0.1 to 0.25 µM; at Urokinase (Abbokinase), 0.25 to 1 µM.
